## Antibody variant affinities, Ab-14 light chain, assay B

Values reported by Li et al. 2023, doi:10.1038/s41467-023-39022-2 (FLAb copy).

Target: peptide PDVDLGDISGINAS, taken from heptad repeat 2 (HR2) of SARS-CoV-2 spike.

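Phage display of a naive human antibody library on the peptide gave the parent. These sequences belong to a second round, designed from the earlier measurements on random variants of the parent. Their group label is 14L_GP_Gen (GP: Gaussian process model; Gen: genetic algorithm; a sequence that several methods proposed may carry one label only). The scFvs were displayed on barcoded MATa yeast, the peptide on MATalpha yeast. Mating (16 h, 30 °C) was followed by selection of diploids and sequencing of their barcodes. A regression on co-assayed BCL2-family reference pairs converts the normalised counts of each replicate to an apparent Kd. Mating was done six times.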

Parent scFv Ab-14: VH joined to VL by a 15-residue (Gly4Ser)3 linker. Changes lie in the light chain CDRs alone.
VH: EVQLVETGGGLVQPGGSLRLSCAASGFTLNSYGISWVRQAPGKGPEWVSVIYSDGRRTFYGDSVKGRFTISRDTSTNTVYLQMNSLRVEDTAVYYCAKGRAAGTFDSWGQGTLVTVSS
VL: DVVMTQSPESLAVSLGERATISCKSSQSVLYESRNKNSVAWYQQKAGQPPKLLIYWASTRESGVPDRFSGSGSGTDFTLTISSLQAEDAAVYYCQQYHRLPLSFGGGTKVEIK

Variants are written as CDR1, CDR2 and CDR3 of the light chain (limits as in the source). Parent: KSSQSVLYESRNKNSVA, WASTRES, QQYHRLPLS. Values are log10 of the apparent Kd in nM; lower means stronger binding. The authors averaged sequences with at least three values out of six and counted those with two or fewer as poor binders. As a blank, each scFv also met three strains without target: over all light chain designs, 4% of these pairings were detected, typically at 2.64 and seldom below 1.59. For each scFv, signals with the empty controls are counted beside the result, with their mean in brackets. The parent sequence was in this pool as ten entries: three were never detected, three once, and four in most replicates, with averages from 0.34 to 2.37. The range of this assay differs from that of the first round, and the authors advise against merging the two.

CDR-L1	CDR-L2	CDR-L3	replicates, log10 nM	signal with controls
KLSGSHLYESRNKNSVA	EASTRES	QQYHRLPLS	0.00 -0.09 -0.39 -0.51 -0.37 -0.52	0/18
KVSMSVLYESRNKNSVA	EASTRES	QQYHRLPLS	0.29 0.06 0.21 -0.09 0.15 0.04	1/18 (4.72)
KLSQSVLYESRNWNSVA	NASTREQ	QQYHRLPLS	-0.07 -0.51 -0.45 -0.54 -0.48 -0.41	1/18 (2.83)
KLSQSVLYLSRNKNSVA	NASTRES	QQYHRLPLS	-0.17 -0.26 -0.38 -0.28 -0.20 -0.13	0/18
KLQQSVLYESRNKNSVA	HASTRED	QQYHRLPLS	-0.11 -0.26 -0.21 -0.24 -0.36 -0.19	2/18 (2.73)
KLEQSDLYESRNKNNVA	NASTRES	QQYHRLPLS	0.59 0.53 0.64 0.29 0.30 0.79	1/18 (2.44)
KLSQSVHYESRNKNSVA	NASTRES	QQYHRLPLS	0.37 0.19 0.20 -0.26 0.20 0.32	1/18 (2.32)
KLSQSVLYESRNKNAVA	NASTRMS	QQYHRLPLS	0.14 0.00 0.02 -0.13 -0.05 0.06	1/18 (3.05)
KLSQSVLMESRNKNSVA	EASTRCS	QQYHRLPLS	-0.08 -0.22 -0.23 -0.42 -0.23 -0.18	1/18 (2.52)
HLSQSMLYESRNKNSVA	NASTRMS	QQYHRLPLS	-0.21 -0.20 -0.34 -0.47 -0.37 -0.26	1/18 (2.58)
KLSQSQLYESRNKNNVA	NASTRED	QQYHRLPLS	0.59 0.64 0.72 0.39 0.63 0.59	1/18 (2.44)
KLPQSALYESRNKNSVA	NASQRES	QQYHRLPLS	-0.14 -0.25 -0.06 -0.34 -0.33 -0.50	0/18
KVQQSDLYESRNKNSVA	NASTRES	QQYHRLPLS	-0.04 0.01 -0.06 -0.08 -0.22 0.03	1/18 (2.16)
KLMQSVQYESRNKNSVA	NASTRES	QQYHRLPLS	-0.15 -0.05 -0.14 -0.12 -0.22 -0.05	2/18 (2.02)
KLEQSELYESRNKNSVA	NASQRES	QQYHRLPLS	-0.46 -0.39 -0.44 -0.70 -0.27 -0.30	0/18
KVPQSGLYESRNKNSVA	EASTRES	QQYHRLPLS	0.38 0.67 0.11 0.02 0.26 0.46	1/18 (2.66)
KLQQSFLYESRNKNSVA	NASQRES	QQYHRLPLS	-0.22 -0.21 -0.10 -0.25 -0.35 -0.15	1/18 (2.57)
KLSQSWLYESRNKNNVA	NASTRED	QQYHRLPLS	-0.35 -0.29 -0.55 -0.52 -0.54 -0.27	1/18 (3.02)
KLQQSTLYESRNKNSVA	NASTRMS	QQYHRLPLS	-0.25 -0.46 -0.02 -0.33 -0.32 -0.42	2/18 (2.41)
KFSQSNLYESRNKNSVA	NASTRES	QQYHRLPLS	-0.19 -0.35 -0.38 -0.37 -0.31 -0.28	0/18
HLSQSQLYESRNKNSVA	NASTRLS	QQYHRLPLS	0.21 -0.01 0.00 -0.20 -0.01 0.00	0/18
KLPQSHLYESRNKNSVA	NASTREQ	QQYHRLPLS	0.03 -0.31 -0.13 -0.59 -0.42 -0.01	0/18
KMSQSHLYESRNKNSVA	NASQRES	QQYHRLPLS	-0.06 -0.25 -0.34 -0.32 -0.43 0.00	1/18 (2.16)
KLSQSVLYESRNKNNVA	NASTRES	QQYHRLPLS	0.00 0.06 -0.03 -0.20 -0.29 0.03	0/18
KLEQSVLYQSRNKNSVA	NASTRES	QQYHRLPLS	0.23 0.13 0.04 0.09 0.15 0.25	0/18
KLSQSVLYESRMKNNVA	HASTRES	QQYHRLPLS	0.50 0.43 0.31 0.34 0.26 0.41	2/18 (3.00)
KLSTSVLYESRNKNSVA	GASTRES	QQYHRLPLS	-0.30 -0.43 -0.51 -0.65 -0.44 -0.33	0/18
KLQQSVLYESRNKNSVA	NASTRLQ	QQYHRLPLS	-0.26 -0.56 -0.49 -0.63 -0.75 -0.31	1/18 (3.08)
KVQQSVPYESRNKNSVA	DASTRES	QQYHRLPLS	0.04 0.18 0.05 0.17 0.06 0.15	0/18
KLSQSVLYESRVKNNVA	NASTRES	QQYHRLPLS	-0.07 -0.22 -0.34 -0.22 -0.28 -0.07	1/18 (2.57)
KLQQSVEYESRNKNSVA	EASTRLS	QQYHRLPLS	-0.03 -0.19 -0.18 -0.34 -0.35 -0.06	1/18 (3.18)
KVSMSMLYESRNKNSVA	NASQRES	QQYHRLPLS	-0.24 -0.39 -0.37 -0.48 -0.18 -0.25	3/18 (2.25)
KLDQSTLYESRNKNSVA	NASTRES	QQYHRLPLS	-0.15 -0.38 -0.20 -0.31 -0.46 -0.09	1/18 (2.18)
KLPQSVWYESRNKNSVA	QASTRES	QQYHRLPLS	-0.11 -0.14 -0.42 -0.36 -0.30 -0.18	0/18
KLSQSVLYGSRNKNSVA	EASTRES	QQYHRLPLS	-0.17 -0.36 -0.43 -0.47 -0.42 -0.39	1/18 (2.56)
KVSMSWLYESRNKNSVA	NASTRES	QQYHRLPLS	0.16 0.09 0.26 0.12 0.14 0.33	0/18
KLSQSVLYESGNKNSVA	NASTRMS	QQYHRLPLS	0.55 0.52 0.08 -0.02 0.09 0.78	1/18 (3.60)
KVSQSYLYESRNKWSVA	NASTRES	QQYHRLPLS	-0.07 -0.18 -0.30 -0.28 -0.15 -0.18	3/18 (3.44)
KFSQSVLYESRNKNSVA	EASTRLS	QQYHRLPLS	0.24 -0.20 -0.02 -0.15 -0.02 0.11	1/18 (2.78)
KLSQSVMYESRNKNSVA	NASTRES	QDYHRLPLS	0.00 -0.15 -0.17 -0.15 -0.19 -0.08	3/18 (2.76)
KLSQSVLYESRNKNSVA	GASTRCS	QQYHRLPLS	-0.28 -0.47 -0.49 -0.52 -0.37 -0.28	0/18
KLEQSVGYESRNKNSVA	NASTRES	QQYHRLPLS	0.52 -0.26 -0.11 -0.32 -0.30 1.11	0/18
KLEQSVLYESRNKNSVA	NASTRYS	QQYHRLPLS	0.08 0.12 -0.03 -0.09 0.03 0.23	2/18 (2.61)
KLEQSELYESRNKNSVA	NASKRES	QQYHRLPLS	-0.11 -0.30 -0.16 -0.32 -0.42 -0.16	3/18 (3.06)
KLSQSVLYESRNSNSVA	DASTRES	QDYHRLPLS	-0.15 0.52 0.50 0.07 0.28 0.15	1/18 (1.80)
KISQSELYESRNKNSVA	EASTRCS	QQYHRLPLS	0.25 -0.14 -0.22 -0.10 -0.27 0.03	2/18 (2.84)
KLSQSVLYESRNKNAVA	HASTRES	QQYHRLPLS	0.10 -0.12 0.03 -0.09 -0.32 -0.06	0/18
KLSQSELYESRMKNNVA	NASTRES	QQYHRLPLS	0.35 0.65 0.35 0.17 0.36 0.81	1/18 (1.21)

The first 6 entries again:

{"CDR-L1": "KLSGSHLYESRNKNSVA", "CDR-L2": "EASTRES", "CDR-L3": "QQYHRLPLS", "replicates, log10 nM": "0.00 -0.09 -0.39 -0.51 -0.37 -0.52", "signal with controls": "0/18"}
{"CDR-L1": "KVSMSVLYESRNKNSVA", "CDR-L2": "EASTRES", "CDR-L3": "QQYHRLPLS", "replicates, log10 nM": "0.29 0.06 0.21 -0.09 0.15 0.04", "signal with controls": "1/18 (4.72)"}
{"CDR-L1": "KLSQSVLYESRNWNSVA", "CDR-L2": "NASTREQ", "CDR-L3": "QQYHRLPLS", "replicates, log10 nM": "-0.07 -0.51 -0.45 -0.54 -0.48 -0.41", "signal with controls": "1/18 (2.83)"}
{"CDR-L1": "KLSQSVLYLSRNKNSVA", "CDR-L2": "NASTRES", "CDR-L3": "QQYHRLPLS", "replicates, log10 nM": "-0.17 -0.26 -0.38 -0.28 -0.20 -0.13", "signal with controls": "0/18"}
{"CDR-L1": "KLQQSVLYESRNKNSVA", "CDR-L2": "HASTRED", "CDR-L3": "QQYHRLPLS", "replicates, log10 nM": "-0.11 -0.26 -0.21 -0.24 -0.36 -0.19", "signal with controls": "2/18 (2.73)"}
{"CDR-L1": "KLEQSDLYESRNKNNVA", "CDR-L2": "NASTRES", "CDR-L3": "QQYHRLPLS", "replicates, log10 nM": "0.59 0.53 0.64 0.29 0.30 0.79", "signal with controls": "1/18 (2.44)"}